Molecular target: human CYP11B2 (Homo sapiens (Human), UniProt P19099)
Test: Cellular assay for CYP11B2 inhibition (V79MZh11B2 hamster fibroblasts, substrate 11-deoxycorticosterone)
Settings: read-out: IC50 value CYP11B2, Hamster fibroblasts expressing human CYP11B2, 100 nM, mean of at least three experiments, n.i. = no inhibition at an inhibitor concentration of 500 nM

Protein sequences, listed by entry. Tags and fused reporters are not part of them. Residues count along the entry.
UniProt P19099, 25-503: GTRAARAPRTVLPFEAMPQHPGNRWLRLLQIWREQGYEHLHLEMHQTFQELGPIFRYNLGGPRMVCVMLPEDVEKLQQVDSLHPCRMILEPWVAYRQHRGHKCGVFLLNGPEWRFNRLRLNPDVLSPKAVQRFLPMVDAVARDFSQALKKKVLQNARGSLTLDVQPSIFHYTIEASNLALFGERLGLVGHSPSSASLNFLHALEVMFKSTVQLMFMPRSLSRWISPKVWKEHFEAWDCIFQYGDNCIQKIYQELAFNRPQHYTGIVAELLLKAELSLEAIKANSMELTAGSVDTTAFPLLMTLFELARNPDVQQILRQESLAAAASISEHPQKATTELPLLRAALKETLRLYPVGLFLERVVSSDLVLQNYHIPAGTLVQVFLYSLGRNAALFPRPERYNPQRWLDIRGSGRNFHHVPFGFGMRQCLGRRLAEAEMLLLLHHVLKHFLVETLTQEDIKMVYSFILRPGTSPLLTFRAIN

Work on CC(C)(C(=O)c1cccnc1)c1cccnc1 [MTP, metyrapone, reference compound] yielded an IC50 of 72 nM.

Source: patent publication US9394290B2, “Selective CYP11B1 inhibitors for the treatment of cortisol dependent diseases” (UNIVERSITAET DES SAARLANDES CAMPUS SAARBRUECKEN, priority 2010, dated 2016)
